Ab-14 light chain CDR variants: yeast mating affinities

Source: Li et al. 2023 (doi:10.1038/s41467-023-39022-2), MIT Lincoln Laboratory and A-Alpha Bio; data file from the FLAb repository.

Target: peptide PDVDLGDISGINAS, taken from heptad repeat 2 (HR2) of SARS-CoV-2 spike.

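Phage display of a naive human antibody library on the peptide gave the parent. This is the validation round: designs drawn from the data on random variants, tested in the same kind of assay. Their group label is 14L_Rand (Rand: our label for a block that the file lists under HC and that is probably the random mutants of the ten best first-round binders). The assay is AlphaSeq: two haploid yeast populations carry antibody and antigen on their surface. Binding brings cells together so that they mate, and sequencing counts the barcode pairs among the diploids. Read counts were normalised to the haploid input and turned into Kd by a linear fit to BCL2-family pairs of known affinity, for each replicate. The assay was run in six technical replicates.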

Parent: Ab-14, a human scFv built as VH, a 15-residue (Gly4Ser)3 linker, VL. Only the CDRs of the light chain vary.
VH: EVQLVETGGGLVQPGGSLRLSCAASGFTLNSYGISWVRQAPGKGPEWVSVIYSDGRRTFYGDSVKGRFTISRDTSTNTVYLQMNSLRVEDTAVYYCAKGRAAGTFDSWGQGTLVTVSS
VL: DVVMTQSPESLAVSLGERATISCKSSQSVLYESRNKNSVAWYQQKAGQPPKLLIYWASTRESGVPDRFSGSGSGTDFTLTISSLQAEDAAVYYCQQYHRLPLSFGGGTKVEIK

The parent's light chain CDRs are KSSQSVLYESRNKNSVA, WASTRES, QQYHRLPLS; each variant's own CDRs replace them letter for letter. Numbers give log10(Kd / nM), so 0 is 1 nM and 3 is 1 µM. Smaller is tighter. A mean of the replicates is given; it leaves out those without a signal. An entry "nd" has no value in the source: the pair was not observed among the diploids in that replicate. This suggests poor binding but is not conclusive. Values of this round are not directly comparable with the first-round values of the same sequences. Three control strains display no target. For all light chain designs, 4% of the pairings with them gave a signal, with a median of 2.64 and one signal in twenty below 1.59, so weak values seen in few replicates may be background. The control count says in how many pairings with the empty strains this scFv gave a signal, with their mean in brackets. The authors' rule: three or more of the six replicates give a measured affinity, fewer mean a poor binder. The parent sequence was in this pool as ten entries: three were never detected, three once, and four in most replicates, with averages from 0.34 to 2.37.

CDR-L1	CDR-L2	CDR-L3	log10 Kd, replicates	mean, log10 nM	control signals
CSLQSVLYESRNNNSPA	HASTRED	QQYHRLPLS	nd nd nd nd nd nd	nd	0/18
KISQSVLYESRNKTSVA	NASTRES	QQYHRLPLS	-0.09 -0.03 -0.01 0.11 0.05 0.26	0.05	1/18 (2.23)
KSSQSWLYVSRNKNSVG	GASTREP	QQYHRLPLD	nd 1.43 0.86 1.40 1.35 0.88	1.18	0/18
KSLQSVLYESRNKNSVA	HASTRED	QQYHRIPLS	0.32 0.57 0.80 0.51 0.38 0.76	0.55	0/18
KQSQVVLYESRNKNSVA	DASTREV	QQYHRLPLS	-0.16 -0.30 -0.17 -0.25 -0.11 0.00	-0.17	0/18
KSLQSVLYESRNKNSVA	HAETRED	QQYHRLPLS	0.08 -0.10 -0.39 -0.06 -0.21 -0.01	-0.11	0/18
KSSQSFLVESRNKNSVA	GASTRES	QQYHALTLS	1.64 1.07 1.04 1.44 1.03 0.98	1.20	2/18 (2.40)
KSSISYHYESRNKNSVA	EDSTRES	QQYHRLHLS	2.20 1.09 2.07 nd 0.80 1.81	1.60	0/18
HSSPSVLYESSNKNSVA	NASTRES	VQYHRLPLS	nd 4.70 nd nd nd nd	4.70	1/18 (2.07)
KFSQSVLYPSRTQNSVA	NASTRES	QQVHRYPLS	nd nd nd nd nd nd	nd	0/18
KSSQSFLYESRNKNSVA	GASTRES	QQSHRLTLS	-0.42 -0.23 -0.48 -0.65 -0.36 -0.39	-0.42	1/18 (2.34)
HSSPTVTYESRNKNSWA	NASTRES	QQYHRLPLS	0.11 0.06 -0.03 0.31 1.17 0.48	0.35	2/18 (2.22)
KSSQSFLYTSRNKNSVA	GAYTRES	QQYHRLTLS	nd nd nd nd nd nd	nd	0/18
KLRQTTLYEPGSKNSVA	WKSTRES	QQYHRLPPS	nd nd nd nd nd nd	nd	0/18
HSSQSWLYESRGKNSVA	GASMRES	QQYHRLPLS	0.99 1.00 0.88 0.68 1.85 1.09	1.08	0/18
KSSQSVLFESRNKNSVK	DASTRES	QQYHRLPKS	nd nd 2.36 nd nd nd	2.36	0/18
KSSQSVLFESRNKNSVA	DASTRES	QQMQRLPLS	0.00 0.06 -0.20 -0.22 -0.10 0.20	-0.04	1/18 (3.36)
FLRQSTLYESRNKNSLA	WASTRES	QQYHRLPLS	nd nd nd nd 3.00 nd	3.00	0/18
KQSQSVLYESRNSNSVA	DASTRES	QQYHRLPLS	-0.08 -0.31 -0.37 -0.34 -0.42 -0.06	-0.26	2/18 (2.91)
HSSPSTLYESRNKNSVA	NASTRES	QQYHRLPLS	0.12 0.29 0.44 0.37 0.53 0.27	0.34	2/18 (3.18)
KSGQGVLYFSRNKNSVA	GASGRES	QQYHRLPLS	1.42 1.69 1.22 1.11 1.35 1.40	1.37	2/18 (2.30)
KSSQSFLYESRNKNSVA	GASTRES	QQYHRLCLS	nd nd nd nd nd nd	nd	0/18
KSLQSYLYESRNKTSVA	HASTRED	QYYHRLPLS	nd 2.68 2.47 2.49 3.30 nd	2.73	1/18 (2.47)
KLRQSTLQESRNKNSVA	WASTRES	QQYHRLELS	nd nd nd nd nd nd	nd	0/18
KSMQSWLYESRNKNSVA	GASTRES	QQYHRLPLS	-0.18 0.03 -0.30 -0.30 -0.20 0.07	-0.15	0/18
CSEQSVLYESRNKNSLA	KASTREI	QQYHRLPLS	1.56 1.17 1.26 1.68 1.12 1.18	1.33	0/18
KSGQGVLIESRNKNHVA	GASTRES	QQYHRLPLS	0.25 0.06 0.10 0.01 0.15 -0.13	0.07	1/18 (3.52)
KSLQSVLYEQRNKNSVA	HASTRED	QQYHRLPLS	0.41 0.31 0.58 0.64 0.52 0.60	0.51	0/18
KFSQSVLYESRTKNSVA	NAVTRET	QQYHRLPLW	-0.39 -0.33 -0.61 -0.51 -0.64 -0.55	-0.51	0/18
KSSQSFCYESRNKNSVA	GASTRES	QQYHRLTLS	0.22 -0.22 -0.18 -0.52 -0.19 -0.34	-0.20	1/18 (1.98)
HPSPSVLYESRNKNSVA	NASTRES	QQYHRLPLS	0.04 -0.27 -0.24 -0.54 -0.08 0.07	-0.17	1/18 (2.21)
KSSWSFLYESRNNNSVA	GASTRES	QQYHRLTLS	0.25 0.48 0.30 0.00 0.26 0.53	0.30	1/18 (2.70)
KSSISYLYESRNKNSVA	AASTHES	QQYHRLPLS	1.30 1.43 1.83 1.61 1.76 1.22	1.53	0/18
KQSQSVLYESRNKNSVA	DASTRES	QQYMRLPLS	-0.27 -0.26 -0.14 -0.47 -0.21 -0.24	-0.26	0/18
KSSQSVLFESRNKNSVA	DASTRES	QQYHSLPLS	1.98 1.19 1.27 1.10 1.00 1.35	1.32	1/18 (2.57)
KFSQRVLYESRTKNSVA	NASTRES	QQYHRLPLT	0.05 0.04 -0.03 -0.11 -0.10 0.08	-0.01	3/18 (2.57)
KSGQSWLYESRNKNSVA	GASTRES	QQYHRLPLS	-0.37 -0.22 -0.37 -0.31 -0.45 -0.30	-0.34	0/18
KNSQSVLFEHRNKNSVA	DASSRES	QQYHRLPLS	0.27 0.42 0.42 0.00 0.54 0.29	0.32	1/18 (2.34)
KSSQSFLYESRNKNSVA	GASTRES	QQYERLTLS	nd nd nd nd nd nd	nd	0/18
KSSQSFLYESRNKNSVA	GASTWES	QQYHALTLS	nd nd nd nd nd nd	nd	0/18

Excerpt, the final 4 entries:

{"CDR-L1": "KSGQSWLYESRNKNSVA", "CDR-L2": "GASTRES", "CDR-L3": "QQYHRLPLS", "log10 Kd, replicates": "-0.37 -0.22 -0.37 -0.31 -0.45 -0.30", "mean, log10 nM": "-0.34", "control signals": "0/18"}
{"CDR-L1": "KNSQSVLFEHRNKNSVA", "CDR-L2": "DASSRES", "CDR-L3": "QQYHRLPLS", "log10 Kd, replicates": "0.27 0.42 0.42 0.00 0.54 0.29", "mean, log10 nM": "0.32", "control signals": "1/18 (2.34)"}
{"CDR-L1": "KSSQSFLYESRNKNSVA", "CDR-L2": "GASTRES", "CDR-L3": "QQYERLTLS", "log10 Kd, replicates": "nd nd nd nd nd nd", "mean, log10 nM": "nd", "control signals": "0/18"}
{"CDR-L1": "KSSQSFLYESRNKNSVA", "CDR-L2": "GASTWES", "CDR-L3": "QQYHALTLS", "log10 Kd, replicates": "nd nd nd nd nd nd", "mean, log10 nM": "nd", "control signals": "0/18"}